## Antibody variant affinities, Ab-14 light chain, assay 1

Reference: Engelhart et al. 2022, doi:10.1038/s41597-022-01779-4. File: FLAb, binding data.

Antigen: PDVDLGDISGINAS, a 14-residue peptide of the SARS-CoV-2 spike HR2 region.

Parent scFv Ab-14: VH joined to VL by three GGGGS repeats. Changes lie in the light chain CDRs alone.
VH: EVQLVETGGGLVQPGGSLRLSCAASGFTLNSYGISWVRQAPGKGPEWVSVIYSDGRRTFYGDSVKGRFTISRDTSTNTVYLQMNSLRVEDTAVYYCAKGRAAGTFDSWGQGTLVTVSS
VL: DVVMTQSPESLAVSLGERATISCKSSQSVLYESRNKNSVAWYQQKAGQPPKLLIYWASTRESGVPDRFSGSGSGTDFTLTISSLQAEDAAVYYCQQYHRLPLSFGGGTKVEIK

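Phage display of a naive human antibody library on the peptide gave the parent. In library AAYL50, one, two or three CDR residues were substituted; doubles and triples were drawn at random. AlphaSeq pools MATa yeast showing the antibodies with MATalpha yeast showing the peptide. The frequency of each diploid, read from paired DNA barcodes, reflects how well the two displayed proteins bind. Each replicate has its own calibration line, from reference interactions of the BCL2 family. The assay was run in three technical replicates.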

Sequences are complete VL domains.
Every variant below is changed at E32 of the VL (sequential numbering).
Values are log10 of the apparent Kd in nM; lower means stronger binding.
The mean shown is taken over the replicates in which the pair was detected.
An entry "no signal" has no value in the source: the pair was not observed among the diploids in any replicate. This suggests poor binding but is not conclusive.
As a blank, each scFv also met three strains without target: over library AAYL50, 18% of these pairings were detected, typically at 4.19 and seldom below 2.99.

The variant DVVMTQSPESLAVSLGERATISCKSQASVLYRSRNKNSVAWYQQKAGQPPKLLIYWASTRESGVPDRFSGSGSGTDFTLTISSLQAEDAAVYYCQQYHRLPLSFGGGTKVEIK showed 1.50 (2 of 3 replicates). For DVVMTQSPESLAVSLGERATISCKSSQSVPYPSRNKNSVAWYQQKAGQPPKLLIYWASVRESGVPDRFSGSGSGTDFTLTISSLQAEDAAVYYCQQYHRLPLSFGGGTKVEIK, the assay gave no signal (0 of 3 replicates). The variant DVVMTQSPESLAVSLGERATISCKSSQSVLYSSRSKNSVAWYQQKAGQPPKLLIYWASTRESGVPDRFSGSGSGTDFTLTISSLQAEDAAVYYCQRYHRLPLSFGGGTKVEIK gave 1.21 (3 of 3 replicates). The variant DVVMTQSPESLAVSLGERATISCKSSQSELYNSRNKNSVAWYQQKAGQPPKLLIYWASTRESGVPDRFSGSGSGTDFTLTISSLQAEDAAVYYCQQYHRLPLGFGGGTKVEIK showed 1.16 (3 of 3 replicates). For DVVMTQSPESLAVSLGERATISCKSSQSVLYLSRNKNSVAWYQQKAGQPPKLLIYWASTRESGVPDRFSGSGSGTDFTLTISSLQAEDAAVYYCQQYHLLPPSFGGGTKVEIK, the assay gave 1.48 (3 of 3 replicates).

For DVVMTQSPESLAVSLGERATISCKSSQSVLYYSRNKNSVAWYQQKAGQPPKLLIYWASTRESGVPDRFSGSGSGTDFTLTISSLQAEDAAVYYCQNYHRLGLSFGGGTKVEIK, the assay gave no signal (0 of 3 replicates). The variant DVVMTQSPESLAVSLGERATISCKSSQSVLYNSRNKFSVAWYQQKAGQPPKLLIYWASTRESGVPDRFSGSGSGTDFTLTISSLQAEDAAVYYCQQYHRLPLSFGGGTKVEIK showed 1.37 (3 of 3 replicates). For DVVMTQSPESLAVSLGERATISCKSSQSVLYDSRNKNSVAWYQQKAGQPPKLLIYWASTRESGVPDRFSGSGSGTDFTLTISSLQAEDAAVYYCQQYPRLPLSFGGGTKVEIK, the assay gave 2.23 (3 of 3 replicates). For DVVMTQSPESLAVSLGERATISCKSSQSVLYYSRNRNSVAWYQQKAGQPPKLLIYWISTRESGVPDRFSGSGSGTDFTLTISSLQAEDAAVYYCQQYHRLPLSFGGGTKVEIK, the assay gave 4.72 (1 of 3 replicates). For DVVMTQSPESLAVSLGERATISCKSSQSVLYLSRNKNSVCWYQQKAGQPPKLLIYWASTRESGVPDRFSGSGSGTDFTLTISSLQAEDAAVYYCQQYHRLPLSFGGGTKVEIK, the assay gave no signal (0 of 3 replicates).

The variant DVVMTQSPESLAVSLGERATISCKSSQSVLYDSRNKNSVAWYQQKAGQPPKLLIYWASTRESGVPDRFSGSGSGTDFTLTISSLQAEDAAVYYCQQYHRLPLSFGGGTKVEIK gave no signal (0 of 3 replicates). The variant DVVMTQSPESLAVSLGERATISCKSSQSVLYQERNKNQVAWYQQKAGQPPKLLIYWASTRESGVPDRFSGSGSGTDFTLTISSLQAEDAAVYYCQQYHRLPLSFGGGTKVEIK showed no signal (0 of 3 replicates). For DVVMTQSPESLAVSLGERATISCKSSQSVLYKSRNKNSVAWYQQKAGQPPKLLIYWASTRMSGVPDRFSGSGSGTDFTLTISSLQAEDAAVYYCQQCHRLPLSFGGGTKVEIK, the assay gave 3.51 (1 of 3 replicates). With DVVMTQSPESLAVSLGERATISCKSSQSVLTRSRNKNSVAWYQQKAGQPPKLLIYWASTRESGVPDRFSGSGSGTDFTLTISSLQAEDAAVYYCQQYHRTPLSFGGGTKVEIK the result was no signal (0 of 3 replicates).

In this assay the parent's reference entry averaged 0.65; its copy inside this library read 1.68.